In PMC13623127 (PLOS One, 2026):

Biological target: T1, activation-inducible TNF-related ligand (TNF ligand superfamily member 18), recombinant soluble form (human, UniProt Q9UNG2 49-177)
T1 construct: also called AITRL
T1 sequence (looked up): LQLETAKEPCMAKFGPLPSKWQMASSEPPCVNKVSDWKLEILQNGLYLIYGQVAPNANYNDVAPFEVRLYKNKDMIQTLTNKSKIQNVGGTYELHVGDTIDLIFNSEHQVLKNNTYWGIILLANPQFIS
Test: SPR; TNFSF member immobilised on ProteOn GLH chip by amine coupling (up to 5,000-14,500 RU); S100 analyte 62.5 nM to 16 uM, 300 s at 30 uL/min; 25°C; 10 mM HEPES-NaOH, 150 mM NaCl, 0.05% TWEEN 20, 1 mM CaCl2, pH 7.4; heterogeneous ligand, one-site or two-state model; constants averaged over analyte concentrations (SD, n = 2-9)
Details: both partners purified

B1: recombinant tag-free human S100A1 (natural protein, UniProt P23297 1-94, looked up)
chain: MGSELETAMETLINVFHAHSGKEGDKYKLSKKELKELLQTELSGFLDAQKDVDAVDKVMKELDENGDGEVDFQEYVVLVAALTVACNNFFWENS
notes: S100A1, human, recombinant, tag-free; Tag-free
Kd: 398 nM
